Measurements taken from patent EP4831169A1, “NOVEL COMPOUND USED AS CBP/P300 INHIBITOR, AND PHARMACEUTICAL COMPOSITION FOR PREVENTING OR TREATING CANCER, INFLAMMATORY DISORDERS, OR AUTOIMMUNE DISEASES COMPRISING SAME AS ACTIVE INGREDIENT” (dated 2026).

Chains of the proteins cited; added tags and fusions are not shown. Residues count along the entry.
UniProt Q92793, 1085-1192 limits assumed: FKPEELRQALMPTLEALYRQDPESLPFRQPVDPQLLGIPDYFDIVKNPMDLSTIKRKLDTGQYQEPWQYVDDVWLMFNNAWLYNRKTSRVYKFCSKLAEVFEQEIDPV

Tests used:
[1] = molecular target: CBP BRD protein (Homo sapiens, UniProt Q92793); assay: CBP bromodomain TR-FRET inhibitory activity assay; conditions: read-out: CBP BRD IC50, Table 3
Experimental: A time resolved fluorescence resonance energy transfer (TR-FRET) experiment was used to verify the activity of CBP bromodomain.
The assay was performed in a final volume of 14 µL, optimized based on a CREBBP time resolved fluorescence resonance energy transfer (TR-FRET) assay kit (BPS Bioscience, cat. 32619) to maximize an assay window, and performed in a final volume of 14 µL, while maximizing the assay window. A TR-FRET fluorescence acceptor and a Tb donor were diluted in an assay buffer containing 2-[4-(2-hydroxyethyl)piperazin-1-yl]ethanesulfonic acid (HEPES) (hereafter, referred to as an assay buffer, BPS Bioscience, cat. 33012), and 3 µL of each solution was transferred to all wells of a white 384-low-volume well plate (Corning, cat. 4513). 2 µL of 4X Ac-H4 peptide (final concentration 85 nM) was transferred to high control wells and test wells. Each compound was prepared at 10 concentration points by serially diluting 3-fold from the highest concentration in a dimethyl sulfoxide solvent. The compound at each concentration was then diluted in the assay buffer to prepare a diluted compound solution that was 4-fold more concentrated than the final concentration. 2 µL of each compound or dimethyl sulfoxide prepared in this way was distributed into an assay plate so that the final test concentration was a minimum of 0.5 µM to a maximum of 10 µM (final dimethyl sulfoxide concentration 1%). 6 µL of 1X assay buffer was added to low control wells and 2 µl was added to high control and test wells. Then, 2 µL of 4X CBP BRD protein (final concentration 7.5 nM, BPS bioscience, cat 31128) was added to initiate a PPI reaction. The plate was reacted at room temperature for 2 hours before measuring the signal. The TR-FRET signal was measured using an EnVision Multilabel plate reader (PerkinElmer; Mirror LNACE/DELFIA Dual/Bias). For data analysis, the values of each well were obtained using a TR-FRET ratio ((Signal 665 nm/Signal 615 nm)×20000). Data analysis was performed using the TR-FRET ratio ((Signal 665 nm/Signal 615 nm)×20000). Data were reported as percent inhibition compared to control wells based on the following equation: %Activity = ((FRETcompound - FRETLow av)/(FRETHigh av - FRETLow av))×100. IC50 analysis was determined by standard 4 parameter curve fitting according to an algorithm using GraphPad Prism 7.0 (GraphPad Software Inc., La Jolla, CA, USA). All data are expressed as mean ± standard error of the mean (SEM).

[2] = molecular target: BRD4 (BD1) protein (Homo sapiens, UniProt O60885); assay: BRD4 bromodomain TR-FRET inhibitory activity assay; conditions: read-out: BRD4 (BD1) IC50, Table 4
Experimental: BRD inhibitory activity was measured using a time resolved fluorescence resonance energy transfer (TR-FRET) experiment to verify the activity of BRD4 bromodomain.
The assay was performed in a final volume of 14 µL, optimized based on a CREBBP time resolved fluorescence resonance energy transfer (TR-FRET) assay kit (BPS Bioscience, cat. 32613) to maximize an assay window, and performed in a final volume of 14 µL, while maximizing the assay window. A TR-FRET fluorescence acceptor and a Tb donor were diluted in an assay buffer containing 2-[4-(2-hydroxyethyl)piperazin-1-yl]ethanesulfonic acid (HEPES) (hereafter, referred to as an assay buffer, BPS Bioscience, cat. 33012), and 3 µL of each solution was transferred to all wells of a white 384-low-volume well plate (Corning, cat. 4513). 2 µL of 4X Ac-H4 peptide (final concentration 15 nM) was transferred to high control wells and test wells. Each compound was prepared at 10 concentration points by serially diluting 3-fold from the highest concentration in a dimethyl sulfoxide (DMSO) solvent. The compound at each concentration was then diluted in the assay buffer to prepare a diluted compound solution that was 4-fold more concentrated than the final concentration. 2 µL of each compound or dimethyl sulfoxide prepared in this way was distributed into an assay plate so that the final test concentration was a minimum of 0.5 µM to a maximum of 10 µM (final DMSO concentration 1%). 6 µL of 1X assay buffer was added to low control wells and 2 µL was added to high control and test wells. Then, 2 µL of 4X BRD4 (BD1) protein (final concentration 7.5 nM, BPS bioscience, cat 31040) was added to initiate a PPI reaction. The plate was reacted at room temperature for 2 hours before measuring the signal. The TR-FRET signal was measured using an EnVision Multilabel plate reader (PerkinElmer; Mirror LNACE/DELFIA Dual/Bias). For data analysis, the values of each well were obtained using the TR-FRET ratio ((Signal 665 nm/Signal 615 nm)×20000). Data analysis was performed using the TR-FRET ratio ((Signal 665 nm/Signal 615 nm)×20000). Data were reported as percent inhibition compared to control wells based on the following equation: %Activity = ((FRETcompound - FRETLow av)/(FRETHigh av - FRETLow av))×100. IC50 analysis was determined by standard 4 parameter curve fitting according to an algorithm using GraphPad Prism 7.0 (GraphPad Software Inc., La Jolla, CA, USA). All data are expressed as mean ± standard error of the mean (SEM).

| SMILES | IC50 [1] | IC50 [2] |
| --- | --- | --- |
| Cn1cc(-c2cc3nc(C(C)(C)C)n(-c4cc(OCc5ccccc5)c5c(c4)n(C)c(=O)n5C)c3cc2C(F)F)cn1 | 500 to 5000 nM | > 5000 nM |
| CC(C)Oc1cc(-n2c(-c3cncn3C)nc3cc(-c4cnn(C)c4)c(C(F)F)cc32)cc2c1n(C)c(=O)n2C | < 500 nM | 500 to 5000 nM |
| Cc1ncc(-c2cc3nc(C(C)(C)C)n(-c4cc(N5CC(C)(O)C5)c5c(c4)n(C)c(=O)n5C)c3cc2C(F)(F)F)s1 | < 500 nM | > 5000 nM |
| CC(C)Oc1cc(-n2c(-c3cncn3C)nc3cc(-c4cnn(C)c4)c(C#N)cc32)cc2c1n(C)c(=O)n2C | < 500 nM | > 5000 nM |
| Cn1cc(-c2cc3nc(C(C)(C)C)n(-c4cc(N5CCOCC5)c5c(c4)n(C)c(=O)n5C)c3cc2CN2CCOCC2)cn1 | 500 to 5000 nM | > 5000 nM |
| CC(C)Nc1cc(-n2c(-c3cncn3C)nc3cc(-c4cnn(C)c4)c(C(F)F)cc32)cc2c1n(C)c(=O)n2C | < 500 nM | > 5000 nM |
| Cn1cc(-c2cc3nc(-c4cncn4C)n(-c4cc(N5CC(C)(O)C5)c5c(c4)n(C)c(=O)n5C)c3cc2OC(F)(F)F)cn1 | < 500 nM | 500 to 5000 nM |
| Cn1cc(-c2cc3nc(-c4cncn4C)n(-c4cc(N5CC(F)(F)C5)c5c(c4)n(C)c(=O)n5C)c3cc2C#N)cn1 | < 500 nM | > 5000 nM |
| Cn1cc(-c2cc3nc(C(C)(C)C)n(-c4cc(N5CCC(C)(O)CC5)c5c(c4)n(C)c(=O)n5C)c3cc2C(F)F)cn1 | < 500 nM | 500 to 5000 nM |
| Cc1nc(-c2cc3nc(C(C)(C)C)n(-c4cc(NC(C)C)c5c(c4)n(C)c(=O)n5C)c3cc2F)no1 | < 500 nM | > 5000 nM |
| Cc1cccc(-c2nc3cc(-c4cnn(C)c4)c(F)cc3n2-c2cc(C(C)C)c3c(c2)n(C)c(=O)n3C)c1C | < 500 nM | > 5000 nM |
| CNc1cc2c(cc1-c1cnn(C)c1)nc(C(C)(C)C)n2-c1cc(N2CCOCC2)c2c(c1)n(C)c(=O)n2C | < 500 nM | 500 to 5000 nM |
| CC(C)Nc1cc(-n2c(C(C)(C)C)nc3cc(-c4cnn(C)c4)c(F)cc32)cc2c1n(C)c(=O)n2C | < 500 nM | > 5000 nM |
| Cn1cc(-c2cc3nc(C(C)(C)C)n(-c4cc(NC5CCCC5)c5c(c4)n(C)c(=O)n5C)c3cc2F)cn1 | < 500 nM | > 5000 nM |
| CN1CCC(Oc2cc(-n3c(C(C)(C)C)nc4cc(-c5cnn(C)c5)c(F)cc43)cc3c2n(C)c(=O)n3C)CC1 | < 500 nM | > 5000 nM |
| CNC(=O)c1ccc(-c2cc3nc(C(C)(C)C)n(-c4cc(N5CC(C)(O)C5)c5c(c4)n(C)c(=O)n5C)c3cc2C(F)F)cc1F | < 500 nM | > 5000 nM |
| Cn1cc(-c2cc3nc(C(C)(C)C)n(-c4cc(N5CCOCC5)c5c(c4)n(C)c(=O)n5C)c3cc2C(F)F)cn1 | < 500 nM | > 5000 nM |
| CNC(=O)c1ccc(-c2cc3nc(-c4cncn4C)n(-c4ccc5c(c4)n(C)c(=O)n5C)c3cc2C(=O)OC)cc1F | < 500 nM | 500 to 5000 nM |
| COc1ncccc1-c1nc2cc(-c3cnn(C)c3)c(C(F)F)cc2n1-c1cc(N2CC(C)(O)C2)c2c(c1)n(C)c(=O)n2C | < 500 nM | > 5000 nM |
| CC(C)Oc1cc(-n2c(C(C)(C)C)nc3cc(-c4cnn(C)c4)c(C#N)cc32)cc2c1n(C)c(=O)n2C | < 500 nM | > 5000 nM |
| Cn1cc(-c2cc3nc(C(C)(C)C)n(-c4cc(OC5CCNCC5)c5c(c4)n(C)c(=O)n5C)c3cc2F)cn1 | < 500 nM | > 5000 nM |
| Cn1cc(-c2cc3nc(C(C)(C)C)n(-c4ccc5c(c4)n(C)c(=O)n5C)c3cc2F)cn1 | < 500 nM | > 5000 nM |
| Cn1cc(-c2cc3nc(C(C)(C)C)n(-c4cc(N5CCC(=O)CC5)c5c(c4)n(C)c(=O)n5C)c3cc2C(F)F)cn1 | < 500 nM | > 5000 nM |

Now from value to molecule:

| IC50 [1] | IC50 [2] | SMILES |
| --- | --- | --- |
| 500 to 5000 nM | > 5000 nM | COC(C)(C)c1cc(-n2c(-c3cncn3C)nc3cc(-c4cnn(C)c4)c(F)cc32)cc2c1n(C)c(=O)n2C |
| < 500 nM | > 5000 nM | COc1ccccc1-c1cc(-n2c(-c3cncn3C)nc3cc(-c4cnn(C)c4)c(F)cc32)cc2c1n(C)c(=O)n2C |
| 500 to 5000 nM | > 5000 nM | Cn1cc(-c2cc3nc(-c4cncn4C)n(-c4ccc5[nH]c(=O)n(C)c5c4)c3cc2F)cn1 |
| < 500 nM | 500 to 5000 nM | Cn1cc(-c2cc3nc(-c4cncn4C)n(-c4cc(N5CCC(O)CC5)c5c(c4)n(C)c(=O)n5C)c3cc2C(F)F)cn1 |
| < 500 nM | > 5000 nM | Cn1cc(-c2cc3nc(-c4cncn4C)n(-c4ccc5c(c4)n(C)c(=O)n5C)c3cc2F)cn1 |
| < 500 nM | > 5000 nM | C[C@@H]1COCCN1c1cc(-n2c(-c3cncn3C)nc3cc(-c4cnn(C)c4)c(F)cc32)cc2c1n(C)c(=O)n2C |
| < 500 nM | > 5000 nM | Cn1cc(-c2ccc3c(c2)nc(-c2cncn2C)n3-c2cc(C3CCOCC3)c3c(c2)n(C)c(=O)n3C)cn1 |
| < 500 nM | > 5000 nM | Cn1cncc1-c1nc2cc(-c3cnn(C(F)F)c3)c(F)cc2n1-c1cc(N2CCOCC2)c2c(c1)n(C)c(=O)n2C |
| < 500 nM | > 5000 nM | CN(C)c1ccc(-c2cc3nc(-c4cncn4C)n(-c4cc(C5CCOCC5)c5c(c4)n(C)c(=O)n5C)c3cc2F)cc1 |
| < 500 nM | 500 to 5000 nM | CNC(=O)c1ccc(-c2cc3nc(-c4cncn4C)n(-c4cc(N5CCOCC5)c5c(c4)n(C)c(=O)n5C)c3cc2F)cc1F |
| < 500 nM | > 5000 nM | C[C@H]1COCCN1c1cc(-n2c(-c3cncn3C)nc3cc(-c4cnn(C)c4)c(F)cc32)cc2c1n(C)c(=O)n2C |
| < 500 nM | 500 to 5000 nM | CC(=O)Nc1ccc(-c2cc3nc(-c4cncn4C)n(-c4cc(NC(C)C)c5c(c4)n(C)c(=O)n5C)c3cc2F)cc1 |
| 500 to 5000 nM | > 5000 nM | Cn1cc(-c2cc3nc(-c4cncn4C)n(-c4ccc5c(c4)n(C)c(=O)n5CCO)c3cc2F)cn1 |
| < 500 nM | > 5000 nM | COc1ccc(Nc2cc(-n3c(-c4cncn4C)nc4cc(-c5cnn(C)c5)c(F)cc43)cc3c2n(C)c(=O)n3C)cc1 |
| < 500 nM | 500 to 5000 nM | CC(C)N(C)c1cc(-n2c(-c3cncn3C)nc3cc(-c4cnn(C)c4)c(F)cc32)cc2c1n(C)c(=O)n2C |
| 500 to 5000 nM | > 5000 nM | CC(=O)c1cc(-n2c(-c3cncn3C)nc3cc(-c4cnn(C)c4)c(F)cc32)cc2c1n(C)c(=O)n2C |
| < 500 nM | 500 to 5000 nM | COC1CN(c2cc(-n3c(-c4cncn4C)nc4cc(-c5cnn(C)c5)c(F)cc43)cc3c2n(C)c(=O)n3C)C1 |
| < 500 nM | 500 to 5000 nM | Cn1cncc1-c1nc2cc(-c3ccc4c(c3)CC(=O)N4)c(F)cc2n1-c1cc(C2CCOCC2)c2c(c1)n(C)c(=O)n2C |
